Kd data for two molecules are collected here from paper PMC10303687 (2023).

Assay [1] addresses p53_Hs (Homo sapiens (Human), UniProt P04637). The experiment in a line: stopped flow koff/kon 10 C.
Assay [2] addresses T1, p53_Mt (bay mussel, UniProt Q539B9).
T1 chain: SQETFEYLWNTL
The experiment in a line: stopped flow koff/kon 10 C.

B1: MDM2_Hs (protein)
chain: SQIPASEQETLVRPKPLLLKLLKSVGAQKDTYTMKEVLFYLGQYIMTKRLYDEKQQHIVYCSNDLLGDLFGVPSFSVKEHRKIYTMIYRNLVVVN
B1: binding in assay [1] was put at a Kd of 0.011 µM.

B2: MDM2_Mt (protein)
chain: EECVVNYPMVRPRREFLDILKQVGASWEVLTRKEVCSYLKDYIGSRQLYNPNDPSIVFCKKDPLGKVFGVDKFTFTEATKLIDANCDQLPD
Take B2: in assay [2], the Kd worked out at 15 µM.

As usually defined, the Kd is the constant that tells how readily two partners part at equilibrium.
